Drawing on PubChem BioAssay AID1745857 (National Center for Advancing Translational Sciences (NCATS), 2022), this text covers activity change, negative = inhibition for three molecules.

This is a selection; strong and weak results do not stand in their true shares. Inconclusive results are not listed. Activity calls are given as the source filed them. Calls follow the shape of the full dose curve.
% is scaled to controls: 0 for no effect and ±100 for the full control effect.

A short description of the assay: Primary qHTS Assay for Foot and Mouth Disease Virus Antivirals against NCGC Sytravon and CBC Compound Libraries: Renilla Luciferase Signal. Also: nearly all actives have a fitted effect of over 55% in size. Particulars: FMDV replicon cells; at 114 µM (top of the series) unless noted. On the technique in general: qHTS replaces the single test concentration by a dilution series.
Take `CN(CCCl)CCCl`: the activity change, negative = inhibition is inactive: -6.13% [at 57.5 µM]. Take `CCC(=O)N(c1ccccc1)C1(COC)CCN(CCc2cccs2)CC1`: the activity change, negative = inhibition was inactive: 1.56%. Turning to `CCC(=O)N(c1ccccc1)C1(COC)CCN(CCn2nnn(CC)c2=O)CC1`, the activity change, negative = inhibition is inactive: -4.7%.
